Test results published in PubChem BioAssay AID1346378 (National Center for Advancing Translational Sciences (NCATS), 2018).
The entries are a selection whose mix differs from that of the whole data set. Active and inactive are the calls of the source. No stated cut-off is given here; in the data, active means activity change below about -50%; inconclusive means mostly about -30% to -49%; inactive means weaker than that.

Protein sequences, listed by entry. Tags and fused reporters are not part of them.
UniProt Q9BTU6, whole entry: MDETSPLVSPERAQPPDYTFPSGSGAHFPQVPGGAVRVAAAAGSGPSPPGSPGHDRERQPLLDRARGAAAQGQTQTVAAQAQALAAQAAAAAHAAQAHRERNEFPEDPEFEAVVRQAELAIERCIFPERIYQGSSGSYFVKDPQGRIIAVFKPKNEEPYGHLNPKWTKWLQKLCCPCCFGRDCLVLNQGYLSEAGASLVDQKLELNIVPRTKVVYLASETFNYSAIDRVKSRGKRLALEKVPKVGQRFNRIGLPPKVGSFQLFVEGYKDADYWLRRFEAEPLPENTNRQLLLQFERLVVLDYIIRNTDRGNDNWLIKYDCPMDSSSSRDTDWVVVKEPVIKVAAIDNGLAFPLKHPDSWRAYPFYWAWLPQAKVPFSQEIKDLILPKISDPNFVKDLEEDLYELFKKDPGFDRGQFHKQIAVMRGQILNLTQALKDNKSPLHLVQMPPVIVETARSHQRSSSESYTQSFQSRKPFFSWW

molecular target: Phosphatidylinositol 4-kinase type 2-alpha (Homo sapiens) (UniProt Q9BTU6); assay: qHTS for small molecular inhibitors of PI4K2A; settings: purified PI4K2A, ADP-Glo luminescence, 1 h; at 76.9 µM, stronger effect = lower value;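 on activity change, negative = inhibition: -100% = wells without enzyme as full effect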
Source text: The phosphatidylinositol 4-phosphate (PI4P) is emerging as a key regulator of lipid transfer in ER-membrane contact sites. The four different phosphatidylinositol 4-kinase (PI4K) enzymes generate PI4P in different membrane compartments supporting distinct cellular processes many of which are crucial for the maintenance of cellular integrity but also hijacked by intracellular pathogens. The goal of this screening project is to search for small molecular inhibitors of PI4K2A based on a high throughput screening strategy.The ADP-Glo assay was used as a starting point to develop a miniaturized version for HTS applications. To implement the HTS screen, the PI4K ADP-Glotrade mark Kinase assay (Promega, V9102) was miniaturized for the 1536-well format used at NCGC.
For the robotic screening, the ADP-Glo assay using the ADP-Glotrade mark Kinase Assay kit from Promega was miniaturized and optimized on 1536-well white solid bottom plates (Greiner Bio-one). The substrate, 1.2 mM PI, prepared in the assay buffer (40mM Tris pH7.5, 20mM MgCl2, 1mM EGTA, 0.4% Triton X-100, 0.5mM DTT, 0.5mg/ml BSA) and PI4K2A enzyme, diluted also in the assay buffer to 4ug/mL, were dispensed onto the plates in equal volumes (1microl/well), pinned with 23 nL/well tested compounds or control followed by dispensation of 1microl/well 300microM ATP. The plates were incubated for one hour. Then, 2 µL/well of ADP-Glo reagent was added and incubated for 40 minutes. Next, 4microL/well of Kinase Detection Buffer was added to the plates and incubated for additional 40 minutes. All incubation steps were performed at ambient temperature. The resulting luminescence signal was measured on Viewlux plate reader (PerkinElmer). Adenosine, a partial non-specific inhibitor, was used as a positive control at 100microM final concentration to assess the assay's quality and plate-to-plate reproducibility. We also used "no enzyme" control to gauge the assay's maximal potential inhibition (IC100).

SMILES	activity change, negative = inhibition
CC(C)c1ccc(OP(C)(=O)Nc2ccc(SC(F)(F)F)cc2)cc1 (centres undefined)	inactive: -3.11%
CP(=O)(Nc1ccccc1F)Oc1ccccc1 (centres undefined)	inactive: -2.67%
O=C(OCCN1CCN(CCOCc2ccccc2)CC1)C(O)(c1ccccc1)c1ccccc1	inactive: -3.39%
CCOP(=O)(CC)Oc1ccc([N+](=O)[O-])cc1 (centres undefined)	inactive: -0.0979%
Cc1cccc([N+](=O)[O-])c1[N+](=O)[O-]	inactive
COc1ccc(OP(C)(=O)Nc2ccc(SC(F)(F)F)cc2)cc1 (centres undefined)	inactive: 1.34%
CCOC(=O)c1ccc(NP(C)(=O)Oc2ccc(F)cc2)cc1 (centres undefined)	inactive: 2.65%
CCN(CC)CCCOC(=O)C(O)(c1ccccc1)C1CCCCC1 (centres undefined)	inactive: 6.09%
Cc1c([N+](=O)[O-])cc([N+](=O)[O-])c(Br)c1[N+](=O)[O-]	inactive: -8.01%
CCCCCOc1ccc(NP(C)(=O)Oc2ccc(Cl)cc2Cl)cc1 (centres undefined)	inactive: 7.76%
CP(=O)(Nc1ccccc1)Oc1ccc(F)cc1 (centres undefined)	inactive: -1.07%
Cc1cc(C)cc(OP(C)(=O)Nc2cccc(C(F)(F)F)c2)c1 (centres undefined)	inactive: 0.503%
COc1ccc(OP(C)(=O)Nc2ccccc2Br)cc1 (centres undefined)	inactive: -2.5%
COc1ccccc1OP(C)(=O)Nc1ccc(C)c(C)c1 (centres undefined)	inactive: 4.95%
CP(=O)(OCCOc1ccccc1)OCCOc1ccccc1	inactive: -0.889%
CP(=O)(Nc1ccc(Cl)cc1Cl)Oc1ccccc1 (centres undefined)	inactive: -1.83%
CCCCCCCCCCCCCCCC1C[N+](C)(C)CCOP(C)(=O)O1 (centres undefined)	inactive: 2.98%
COc1ccccc1OP(C)(=O)Nc1ccc(Br)cc1 (centres undefined)	inactive: 3.93%
CN(C)CCOC(=O)C(O)(c1ccccc1)C1CCCC1 (centres undefined)	inactive: -1.08%
COc1ccc(OP(C)(=O)Nc2ccccn2)cc1 (centres undefined)	inactive: 2.17%

SMILES	activity change, negative = inhibition
O=[N+]([O-])c1cc([N+](=O)[O-])c(Nc2ccccn2)c([N+](=O)[O-])c1	inactive: -13.8%
Cc1c(NP(C)(=O)Oc2ccc(C(C)C)cc2)c(=O)n(-c2ccccc2)n1C (centres undefined)	inactive: 3.6%
CCc1ccc(OP(C)(=O)O)cc1	inactive: -21.8%
COc1ccccc1OP(C)(=O)Nc1ccc(C)cc1C (centres undefined)	inactive: 1.09%
CP(=O)(Nc1ccccn1)Oc1ccccc1 (centres undefined)	inactive: 3.62%
COc1ccc(OP(C)(=O)Nc2ccc(Br)cc2)cc1 (centres undefined)	inactive: -3.08%
CCN(CC)CC(O)COC(=O)C(O)(c1ccccc1)C1CCCCC1 (centres undefined)	inactive: -6.08%
CCc1ccc(OP(C)(=O)Nc2cccnc2)cc1 (centres undefined)	inactive: 3.17%
CP(=O)(Oc1ccccc1)N1CCOC1=O (centres undefined)	inactive: 4.41%
O=C(OCCCN1CCCC1)C(O)(c1ccccc1)C1CCCCC1 (centres undefined)	inactive: -3.45%
OCCSCCO	inactive: 1.47%
COc1ccccc1OP(C)(=O)Nc1c(C)n(C)n(-c2ccccc2)c1=O (centres undefined)	inactive: 4.95%
CP(=O)(Nc1ccc(Cl)cc1)Oc1ccc(F)cc1 (centres undefined)	inactive: -6.57%
CC(C)(C)c1ccc(OP(C)(=O)O)cc1	inactive: -0.939%
COc1ccccc1OP(C)(=O)Nc1ccccc1Br (centres undefined)	inactive: 2.8%
CN(C)C(=O)c1c([N+](=O)[O-])cc([N+](=O)[O-])cc1[N+](=O)[O-]	inactive: -10%
Nc1ccc2c(ccc3cccnc32)n1.O=[N+]([O-])c1cc([N+](=O)[O-])c(O)c([N+](=O)[O-])c1	inactive: 13.2%
CP(=O)(OC12CC3CC(CC(C3)C1)C2)OC12CC3CC(CC(C3)C1)C2	inactive: -0.532%
CCOC(=O)c1ccc(NP(C)(=O)Oc2ccc(Cl)cc2)cc1 (centres undefined)	inactive: 1.72%
